# From PubChem BioAssay AID504467 (National Center for Advancing Translational Sciences (NCATS), 2011)
# The list shows a part of the results, in another mix than the full data. Results filed as inconclusive are left out. Active and inactive are the calls of the source. The call rests on the fitted dose curve; in most records, active means well fitted inhibition curve with a large enough effect; inconclusive means small, poorly fitted or top-dose-only effect, or effect the other way; inactive means flat fitted curve, though single readings scatter.
# Assay: qHTS screen for small molecules that inhibit ELG1-dependent DNA repair in human embryonic kidney (HEK293T) cells expressing luciferase-tagged ELG1; further: nearly all actives have a fitted effect of over 55% in size
# Conditions: HEK293T ELG1-luciferase reporter, luminescence, 16 h, DNA damage induced by 5-fluorouridine; at 46.1 µM (top of the series)
# On the % scale 0 is the no-effect control and ±100 the full control effect.
row,SMILES,"activity change, negative = inhibition"
1,CCC(=O)N(c1ccccc1)C1(COC)CCN(CCc2cccs2)CC1,inactive: -3.26%
2,CCC(=O)N(c1ccccc1)C1(COC)CCN(CCn2nnn(CC)c2=O)CC1,inactive: 11.9%
